Measurements: patent US20050009060A1, “Multiplexed multitarget screening method” (priority 2003, published 2005)

By UniProt entry, the sequences of proteins in these tests, tags left out.
UniProt P32245, whole entry, species assumed: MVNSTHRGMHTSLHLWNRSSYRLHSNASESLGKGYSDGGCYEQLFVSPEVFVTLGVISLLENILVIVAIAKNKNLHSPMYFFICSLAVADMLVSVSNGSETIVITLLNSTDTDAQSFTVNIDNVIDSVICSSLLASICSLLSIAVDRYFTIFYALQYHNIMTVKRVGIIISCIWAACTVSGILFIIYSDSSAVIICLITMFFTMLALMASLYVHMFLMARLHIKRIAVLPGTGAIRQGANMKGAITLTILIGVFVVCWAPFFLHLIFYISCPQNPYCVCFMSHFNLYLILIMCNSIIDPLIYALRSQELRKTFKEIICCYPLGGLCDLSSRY

Target: T1, melanocortin 4 receptor (MC4R) (Homo sapiens, UniProt P32245)
T1 construct: expressed in transfected cells; host or cells: HEK293
Assay: Ca2+i levels by flow cytometry in HEK293 cells transfected with MC4R
Type: cell-based
Settings: 1 uM
Description: When measuring Ca^2+i responses, the power of single cell analysis provides enhanced resolving power in terms of the ability to detect weakly active compounds. […] In FIG. 21, each dot represents a single cell, where more than one cell per pixel space is represented by transitions from darker to lighter shading in a black-and-white plot, and by transitions from red to yellow to white coloring in a color plot (these transitions are also captured quantitatively). […] In FIG. 21, the solid line represents the average of the sampled population at each bin in the x-axis (time) as calculated from the single cell data. An instrument that measures the average response of the population over time, e.g., a spectrofluorimeter or a fluorescent imaging plate reader (FLIPR™), produces a plot like that of the solid line, whereas single cell analysis as provided herein yields different information. The average response measured by, e.g., a spectrofluorimeter or a FLIPR™ implies that the cellular response in all the cells in a sample develops relatively slowly over time, eventually reaching a peak value that is followed by a slow decline to the basal level. […] This behavior is consistently seen for all GPCRs analyzed at the single cell level as provided herein. […]

In the case of NDP-αMSH [NDP-aMSH], the “Ca2+i response of single cells to ligand” value is reported as “only a subset of the cells respond to the ligand”.
